Conditions: PAMPA

In the case of daptomycin [reference compound], the “passive permeability (in words)” value is reported as “poor passive permeability”.

Work on cyclosporin E [CSE] yielded a logPe (16 h) of −6.4 and a ΔlogPe (relative to CSA (logPe = −5.01)) of −1.37.

— article PMC5186412 (Future medicinal chemistry, 2015)
